B1: hydrocarbon-stapled VDAC1 peptide encompassing residues 7–21 (stVDAC1-N) (peptide)
chain: YADLGKSARDVFTKG
modifications: hydrocarbon staple between residues 11 and 15
B2: VDAC1-N-terminal peptide (residues 1–24), linear (peptide, UniProt P21796 1-24, looked up)
peptide: MAVPPTYADLGKSARDVFTKGYGF
notes: VDAC1, human, N-terminal part, residues 1-24; other VDAC1-N constructs of 2-25 and 1-26 are described in the methods; also called linear VDAC1-N peptide; linear peptide

Protein sequences, listed by entry. Tags and fused reporters are not part of them. Lines headed by an entry give the natural chain unless they say otherwise; changes in a name come on top. Chains listed by the source or under a name are the forms on record and can include a tag or linker.
UniProt P21796: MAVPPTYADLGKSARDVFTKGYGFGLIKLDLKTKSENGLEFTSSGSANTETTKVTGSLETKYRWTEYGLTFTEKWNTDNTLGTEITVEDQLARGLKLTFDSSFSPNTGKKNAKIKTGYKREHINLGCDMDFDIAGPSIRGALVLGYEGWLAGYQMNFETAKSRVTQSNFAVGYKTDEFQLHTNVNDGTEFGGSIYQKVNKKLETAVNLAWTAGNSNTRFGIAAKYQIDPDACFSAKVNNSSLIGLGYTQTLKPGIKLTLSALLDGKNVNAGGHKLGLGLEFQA
UniProt Q07817, other isoform, or with tags, fused parts or gaps with the stated changes: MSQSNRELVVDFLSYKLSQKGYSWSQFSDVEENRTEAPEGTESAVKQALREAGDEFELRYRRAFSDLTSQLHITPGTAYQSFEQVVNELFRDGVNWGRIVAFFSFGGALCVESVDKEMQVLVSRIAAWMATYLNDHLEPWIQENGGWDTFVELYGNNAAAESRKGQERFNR

Experiments:
[1] = target: human BclxLΔLT (BclxL without the flexible loop and the transmembrane helix) (human, UniProt Q07817-1 1-212, flexible loop (residues 44–84) deleted); assay: NMR
[2] = target: T1, human BclxLΔLT (BclxL without the flexible loop and the transmembrane helix) (human, UniProt Q07817-1 1-212, flexible loop (residues 44–84) deleted); assay: ITC; MicroCal PEAQ-ITC, 20 °C; BclxLΔLT in the cell (250 µM for the linear, 50 µM for the stapled peptide), peptide in the syringe (500 µM stapled); 10 mM NaPi pH 7.0, 50 mM NaCl, 0.5 mM EDTA, 1 mM DTT; conditions: both partners purified
T1 construct: BclxL, human, residues 1-43 and 85-212 (flexible loop 44-84 and transmembrane helix deleted); the NMR methods say 1-44 and 85-213; Isotope-labelled for NMR; In the crystal it stood fused to VDAC1-N(1-26) on one chain; source: E. coli BL21 (DE3), purified (Ni-NTA, SEC)

Binder	Kd [1]	Kd [2]
B1	5 µM	
B2		29 µM
